Values quoted from earlier work, collected in patent US20250062039A1, “ESTIMATION OF PHARMACOKINETIC (PK) PARAMETERS OF DRUG CANDIDATES USING UNIVERSAL PK PARAMETERS BOUNDS” (Tata Consultancy Services Limited, priority 2023, published 2025).
This is a selection: effects in other tests are not listed, and their absence says nothing. A number of entries come with more than one value. This list holds those alone. There may be further records. The values listed for one entry differ for a reason that is not stated; some may be repeats, others may stem from another dose, organism or construct than stated.

Settings: IV Bolus 161.74 μg; individual values of subjects 1-7; cited from earlier work

CCC(=O)N(c1ccccc1)C1(COC)CCN(CCn2nnn(CC)c2=O)CC1
CL: 18.24, 15.26, 23.38, 12.29, 10.49, 7.91, 12.41 L/hr | T1/2beta: 1.76, 1.42, 1.25, 1.52, 1.97, 2.34, 1.14 hr | V2: 23.52, 16.22, 24.18, 12.25, 18.26, 10.17, 9.34 L | Vss: 38.69, 25.16, 35.28, 23.25, 26.52, 23.21, 18.49 L
